Test results reported in PMC3492761 (Journal of medicinal chemistry, 2012).
Like-named read-outs stand apart in the source and are kept apart here.

Tests used:
MDCK cells = details: dog
[1] = rat, in vivo; for AUC0→t / AUC0→∞ / MRT / k: male, Sprague-Dawley
[2] = female, Crl:CD1 (ICR), mouse, in vivo
in vivo [3] = details: male, Sprague-Dawley, rat, po, 5 mg/kg
[4] = rat, in vivo
in vivo [5] = details: rat, iv
in vivo [6] = details: dog, iv
[7] = dog, in vivo
in vitro = details: human, rat, dog, plasma, pH 7.4
[8] = test system: influenza A/CA/04/2009 (H1N1) virus; details: mouse, in vivo, po
physchem = details: water
[9] = male, mouse, in vivo, po, 10 mg/kg

Structure (SMILES): CCOP(=O)(O)C1=C[C@@H](OC(CC)CC)[C@H](NC(C)=O)[C@@H](N)C1
- nontoxic concentration to MDCK cells (highest testing concentration) (MDCK cells): > 100 µM
- AUC0→t ([1]; iv, 1 mg/kg): 1267 ± 336 ng·h/mL
- AUC0→∞ ([1]; iv, 1 mg/kg): 1286 ± 344 ng·h/mL
- MRT ([1]; iv, 1 mg/kg): 1.44 ± 0.79 h
- k ([1]; iv, 1 mg/kg): 0.428 ± 0.138 h⁻¹
- plasma concentrations after oral administration ([1]; po): below the detection limit
- dose at which mortality occurred ([2]; ip): 2000 mg/kg

Structure (SMILES): CCOP(=O)(O)C1=C[C@@H](OC(CC)CC)[C@H](NC(C)=O)[C@@H](NC(=N)N)C1
- Tmax (in vivo [3]): 1.38 ± 0.59 h
- AUC0→t ([4]; iv, 2 mg/kg): 3168 ± 492 ng·h/mL
- AUC0→∞ ([4]; iv, 2 mg/kg): 3170 ± 492 ng·h/mL
- MRT ([4]; iv, 2 mg/kg): 0.5 ± 0.03 h
- k ([4]; iv, 2 mg/kg): 0.16 ± 0.01 h⁻¹
- MRT ([4]; po, 50 mg/kg): 5.6 ± 0.23 h
- k ([4]; po, 50 mg/kg): 0.31 ± 0.01 h⁻¹
- AUC0→t ([1]; iv, 0.3 mg/kg): 389 ± 35 ng·h/mL
- AUC0→∞ ([1]; iv, 0.3 mg/kg): 390 ± 36 ng·h/mL
- MRT ([1]; iv, 0.3 mg/kg): 0.53 ± 0.03 h
- k ([1]; iv, 0.3 mg/kg): 1.285 ± 0.037 h⁻¹
- AUC0→t ([1]; po, 5 mg/kg): 69.6 ± 10.2 ng·h/mL
- AUC0→∞ ([1]; po, 5 mg/kg): 77.9 ± 10.3 ng·h/mL
- MRT ([1]; po, 5 mg/kg): 2.05 ± 0.27 h
- k ([1]; po, 5 mg/kg): 0.669 ± 0.126 h⁻¹
- clearance (in vivo [5]): 10.7 mL/min/kg
- clearance (in vivo [6]): 3.4 mL/min/kg
- AUC0→t ([7]; iv, 5 mg/kg): 24516 ± 1918 ng·h/mL
- AUC0→∞ ([7]; iv, 5 mg/kg): 24641 ± 1936 ng·h/mL
- MRT ([7]; iv, 5 mg/kg): 1.52 ± 0.139 h
- k ([7]; iv, 5 mg/kg): 0.13 ± 0.03 h⁻¹
- AUC0→t ([7]; po, 20 mg/kg): 11019 ± 2975 ng·h/mL
- AUC0→∞ ([7]; po, 20 mg/kg): 11561 ± 3210 ng·h/mL
- MRT ([7]; po, 20 mg/kg): 5.12 ± 0.694 h
- k ([7]; po, 20 mg/kg): 0.13 ± 0.03 h⁻¹
- fraction unbound (in vitro): 0.86 to 0.91
- survival vs control group ([8]; 1 mg/kg/day): significantly different from the control group
- survival vs control group ([8]; 10 mg/kg/day): significantly different from the control group

Structure (SMILES): CCC(CC)O[C@@H]1C=C(P(=O)(O)O)C[C@H](N)[C@H]1NC(C)=O [3a, tamiphosphor]
- solubility (physchem): ≤ 50 mg/mL
- nontoxic concentration to MDCK cells (highest testing concentration) (MDCK cells): > 100 µM
- AUC0→t ([1]; iv, 1 mg/kg): 2620 ± 671 ng·h/mL
- AUC0→∞ ([1]; iv, 1 mg/kg): 2634 ± 672 ng·h/mL
- MRT ([1]; iv, 1 mg/kg): 1.47 ± 0.25 h
- k ([1]; iv, 1 mg/kg): 0.213 ± 0.041 h⁻¹
- AUC0→t ([1]; po, 1 mg/kg): 51.04 ± 28.95 ng·h/mL
- AUC0→∞ ([1]; po, 1 mg/kg): 55.69 ± 25.51 ng·h/mL
- MRT ([1]; po, 1 mg/kg): 4.40 ± 0.64 h
- k ([1]; po, 1 mg/kg): 0.265 ± 0.127 h⁻¹
- dose at which mortality occurred ([2]; iv): above 750 mg/kg

Structure (SMILES): CCC(CC)O[C@@H]1C=C(P(=O)(O)O)C[C@H](NC(=N)N)[C@H]1NC(C)=O [4a, guanidino-tamiphosphor]
- nontoxic concentration to MDCK cells (highest testing concentration) (MDCK cells): > 100 µM
- AUC0→t ([1]; iv, 0.5 mg/kg): 666 ± 171 ng·h/mL
- AUC0→∞ ([1]; iv, 0.5 mg/kg): 669 ± 173 ng·h/mL
- MRT ([1]; iv, 0.5 mg/kg): 0.66 ± 0.06 h
- AUC0→t ([1]; po, 3 mg/kg): 116.7 ± 54.5 ng·h/mL
- AUC0→∞ ([1]; po, 3 mg/kg): 128.4 ± 59.4 ng·h/mL
- MRT ([1]; po, 3 mg/kg): 2.40 ± 0.57 h
- k ([1]; po, 3 mg/kg): 0.485 ± 0.090 h⁻¹
- AUC0→t [9]: 939 ± 346 ng·h/mL
- AUC0→∞ [9]: 1050 ± 355 ng·h/mL
- MRT [9]: 3.61 ± 0.81 h
- k [9]: 0.300 ± 0.073 h⁻¹
- survival vs control group ([8]; 1 mg/kg/day): significantly different from the control group
- survival vs control group ([8]; 10 mg/kg/day): significantly different from the control group
